Data taken from patent US11248234B2, “Herbicide-resistant hydroxyphenylpyruvate dioxygenases” (BASF SE, priority 2015, dated 2022).
Values joined by “and” are separate entries in the source; they are usually repeats but may differ in a detail not shown here. Equal values may be shown once. “Also recorded” adds a separate entry of the source.

Protein sequences, listed by entry. Tags and fused reporters are not part of them.
UniProt A0A383WMN4, entry or part of it N195D/DEL398-433: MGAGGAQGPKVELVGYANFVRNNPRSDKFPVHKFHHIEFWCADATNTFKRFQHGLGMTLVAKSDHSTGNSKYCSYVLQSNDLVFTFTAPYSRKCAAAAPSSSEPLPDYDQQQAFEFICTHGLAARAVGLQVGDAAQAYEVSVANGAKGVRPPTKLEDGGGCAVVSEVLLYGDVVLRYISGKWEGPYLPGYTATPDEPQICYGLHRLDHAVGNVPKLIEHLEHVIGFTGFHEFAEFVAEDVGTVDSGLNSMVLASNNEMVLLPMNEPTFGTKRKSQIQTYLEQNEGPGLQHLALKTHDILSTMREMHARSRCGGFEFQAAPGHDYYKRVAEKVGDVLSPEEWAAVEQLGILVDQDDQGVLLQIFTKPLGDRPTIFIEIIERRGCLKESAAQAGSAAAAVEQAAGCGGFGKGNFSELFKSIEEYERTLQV
UniProt A0A383WMN4, entry or part of it N195D: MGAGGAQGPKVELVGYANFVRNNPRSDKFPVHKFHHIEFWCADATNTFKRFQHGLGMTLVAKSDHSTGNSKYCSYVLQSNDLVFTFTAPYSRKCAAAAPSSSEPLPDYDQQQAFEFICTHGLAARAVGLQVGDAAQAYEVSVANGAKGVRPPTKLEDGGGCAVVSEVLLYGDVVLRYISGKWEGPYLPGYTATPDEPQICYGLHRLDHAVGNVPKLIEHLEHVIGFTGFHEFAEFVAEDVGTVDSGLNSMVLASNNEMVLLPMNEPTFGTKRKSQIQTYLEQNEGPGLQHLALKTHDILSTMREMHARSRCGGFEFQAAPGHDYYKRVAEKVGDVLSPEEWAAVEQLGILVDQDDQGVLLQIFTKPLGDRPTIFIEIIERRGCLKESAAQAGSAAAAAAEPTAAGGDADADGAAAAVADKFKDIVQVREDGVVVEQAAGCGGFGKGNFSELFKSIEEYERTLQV

How the values were obtained:
Assay in all cases: In vitro HPPD activity assay
[1] = tested on: SoHPPD F363I; type: biochemical, Scenedesmus obliquus; details: normalized on Arabidopsis wild-type HPPD (SEQ ID NO:42)
Description: (§1) HPPD produces homogentisic acid and CO2 from 4-hydroxyphenylpyruvate (4-HPP) and O2. The activity assay for HPPD is based on the analysis of homogentisic acid by reversed phase HPLC.
(§2) The assay mixture can contain 150 mM potassium phosphate buffer pH 7.0, 50 mM L-ascorbic acid, 100 μM Catalase (Sigma-Aldrich), 1 μM FeSO4 and 0.2 units of purified mutated HPPD enzyme in a total volume of 505 μl. 1 unit is defined as the amount of enzyme that is required to produce 1 nmol of HGA per minute at 20° C.
(§3) After a preincubation of 30 min the reaction is started by adding 4-HPP to a final concentration of 0.05 mM. The reaction is allowed to proceed for 45 min at room temperature. The reaction is stopped by the addition of 50 μl of 4.5 M phosphoric acid. The sample is filtered using a […] pore size PVDF filtration device.
(§4) 5 μl of the cleared sample is analyzed on an UPLC HSS T3 column (particle size 1.8 μm, dimensions 2.1×50 mm; Waters) by isocratic elution using 90% 20 mM NaH2PO4 pH 2.2, 10% methanol (v/v).
(§5) HGA is detected electrochemically at 750 mV (mode: DC; polarity: positive) and quantified by integrating peak areas (Empower software; Waters).
(§6) Inhibitors are dissolved in DMSO (dimethylsulfoxide) to a concentration of 0.5 mM. From this stock solution serial five-fold dilutions are prepared in DMSO, which are used in the assay. The respective inhibitor solution accounts for 1% of the assay volume. Thus, final inhibitor concentrations range from 5 μM to 320 pM, respectively. Activities are normalized by setting the uninhibited enzyme activity to 100%. IC50 values are calculated using non-linear regression.
(§7) Using methods which are described in the above examples or well known in the art, purified, recombinant mutated HPPD enzymes are characterized with respect to their kinetic properties and sensitivity towards HPPD inhibiting herbicides. Apparent michaelis constants (Km) and maximal reaction velocities (Vmax) are calculated by non-linear regression with the software GraphPad Prism 5 (GraphPad Software, La Jolla, USA) using a substrate inhibition model. Apparent kcat values are calculated from Vmax assuming 100% purity of the enzyme preparation. Weighted means (by standard error) of Km and IC50 values are calculated from at least three independent experiments. The Cheng-Prusoff equation for competitive inhibition (Cheng, Y. C.; Prusoff, W. H. Biochem Pharmacol 1973, 22, 3099-3108) is used to calculate dissociation constants (Ki).
(§8) Field performance of the HPPD enzyme, which is used as a herbicide tolerance trait may depend not only on its lack of sensitivity towards HPPD inhibiting herbicides but also on its activity. To assess the potential performance of a herbicide tolerance trait a tolerance index (TI) is calculated using the following formula: […]
(§9) Easy comparison and ranking of each trait is enabled by normalizing tolerance indexes on Arabidopsis wild-type HPPD.

[2] = tested on: SoHPPD E345Q, K326D (short); type: biochemical, Scenedesmus obliquus; details: normalized on Arabidopsis wild-type HPPD (SEQ ID NO:42)
Description: as §1, §2, §3, §4, §5, §6, §7, §8, §9

[3] = tested on: SoHPPD V251A, H306R, Q317L, A318P, G321P, K331E, L350M (short); type: biochemical, Scenedesmus obliquus; details: normalized on Arabidopsis wild-type HPPD (SEQ ID NO:42)
Description: as §1, §2, §3, §4, §5, §6, §7, §8, §9

[4] = tested on: SoHPPD Q317M (short); type: biochemical, Scenedesmus obliquus; details: normalized on Arabidopsis wild-type HPPD (SEQ ID NO:42)
Description: as §1, §2, §3, §4, §5, §6, §7, §8, §9

[5] = tested on: SoHPPD E345Q (short); type: biochemical, Scenedesmus obliquus; details: normalized on Arabidopsis wild-type HPPD (SEQ ID NO:42)
Description: as §1, §2, §3, §4, §5, §6, §7, §8, §9

[6] = tested on: SoHPPD Q317H, A318G, E345Q (short); type: biochemical, Scenedesmus obliquus; details: normalized on Arabidopsis wild-type HPPD (SEQ ID NO:42)
Description: as §1, §2, §3, §4, §5, §6, §7, §8, §9

[7] = tested on: SoHPPD K326E, E345Q (short); type: biochemical, Scenedesmus obliquus; details: normalized on Arabidopsis wild-type HPPD (SEQ ID NO:42)
Description: as §1, §2, §3, §4, §5, §6, §7, §8, §9

[8] = tested on: SoHPPD V251A (short); type: biochemical, Scenedesmus obliquus; details: normalized on Arabidopsis wild-type HPPD (SEQ ID NO:42)
Description: as §1, §2, §3, §4, §5, §6, §7, §8, §9

[9] = tested on: SoHPPD Q317H; type: biochemical, Scenedesmus obliquus; details: normalized on Arabidopsis wild-type HPPD (SEQ ID NO:42)
Description: as §1, §2, §3, §4, §5, §6, §7, §8, §9

[10] = tested on: SoHPPD F39W, L367V, I375L (short); type: biochemical, Scenedesmus obliquus; details: normalized on Arabidopsis wild-type HPPD (SEQ ID NO:42)
Description: as §1, §2, §3, §4, §5, §6, §7, §8, §9

[11] = biological target: Scenedesmus Short HPPD (Seq ID: 4) (Tetradesmus obliquus, UniProt A0A383WMN4, DEL398-433/N195D); type: biochemical; details: for TI (normalized tolerance index): normalized on Arabidopsis wild-type HPPD (SEQ ID NO:42); for TI (tolerance index): not normalized
Description: as §1, §2, §3, §4, §5, §6, §7, §8, §9

[12] = biological target: Scenedesmus HPPD (Seq ID: 2) (Tetradesmus obliquus, UniProt A0A383WMN4, N195D); type: biochemical; details: for TI (normalized tolerance index): normalized on Arabidopsis wild-type HPPD (SEQ ID NO:42); for TI (tolerance index): not normalized
Description: as §1, §2, §3, §4, §5, §6, §7, §8, §9

[13] = tested on: Scenedesmus HPPD with glutamine 317 exchanged to methionine, alanine 318 substituted by glycine and glutamate 345 mutated to glutamin; type: biochemical, Scenedesmus obliquus; details: in words, from Table 6 data
Description: as §1, §2, §3, §4, §5
as §6, with “Thus, final inhibitor concentrations range from 5 μM to 320 pM, respectively.” left out
as §7, with “Apparent kcat values are calculated from Vmax assuming 100% purity of the enzyme preparation.” left out, “experiments.” for “experiments. The Cheng-Prusoff equation for competitive inhibition (Cheng, Y. C.; Prusoff, W. H. Biochem Pharmacol 1973, 22, 3099-3108) is used to calculate dissociation constants (Ki).”
as §8, §9

[14] = tested on: SoHPPD F363I (short); type: biochemical, Scenedesmus obliquus; details: normalized on Arabidopsis wild-type HPPD (SEQ ID NO:42)
Description: as §1, §2, §3, §4, §5, §6, §7, §8, §9

SMILES	TI (normalized tolerance index) [1]	TI (normalized tolerance index) [2]	TI (normalized tolerance index) [3]	TI (normalized tolerance index) [4]	TI (normalized tolerance index) [5]	TI (normalized tolerance index) [6]	TI (normalized tolerance index) [7]	TI (normalized tolerance index) [8]	TI (normalized tolerance index) [9]	TI (normalized tolerance index) [10]	TI (normalized tolerance index) [11]	TI (tolerance index) [11]	TI (normalized tolerance index) [12]	TI (tolerance index) [12]	resistance of the enzyme to the inhibitor [13]	TI (normalized tolerance index) [14]
Cc1c(C(=O)c2cnn(C)c2O)ccc(S(C)(=O)=O)c1C1=NOCC1 [Inhibitor 1, [3-(4,5-dihydroisoxazol-3-yl)-2-methyl-4-methylsulfonyl-phenyl]-(5-hydroxy-1-methyl-pyrazol-4-yl)methanone]	4	2.1	11.5	13.8	0.7	11.3	0.3	0.5	1.9	1.2	9.3	8.85E−3	0.4	0.42E−3	conferred resistance	–
CN(c1c(Cl)ccc(C2=C(O)c3ncccc3C(C)(C)S2(=O)=O)c1Cl)S(C)(=O)=O [Inhibitor 3, N-[2,6-dichloro-3-(8-hydroxy-5,5-dimethyl-6,6-dioxo-thiopyrano[4,3-b]pyridin-7-yl)phenyl]-N-methyl-methanesulfonamide]	0.8	0.8	1.1	4.1	0.6	3.5	0.1	0.1	0.8	0.5	4.6	110E−3	0.2	4.41E−3	conferred resistance	1.7
Cc1nonc1NC(=O)c1ccc(S(C)(=O)=O)c(S(C)(=O)=O)c1C [Inhibitor 6, 2-methyl-N-(4-methyl-1,2,5-oxadiazol-3-yl)-3,4-bis(methylsulfonyl)benzamide]	61.1	1.2	18.2 and 18.3	8.7	1.2	7	0.2	0.4	1.0	0.7	6.6	–	0.3	–	conferred resistance	not inhibited; also recorded: no inhi-
CSc1c(Cl)cc(F)c(C(=O)Nc2nnnn2C)c1Cl [Inhibitor 7, 2,4-dichloro-6-fluoro-3-methylsulfanyl-N-(1-methyltetrazol-5-yl)benzamide]	0.2	0.3	0.1	0.9	0.1	1.3	0.1	0.0	0.1	0.2	0.4	–	0.1	–	conferred resistance	1.7
